The data set concerns PAE cells.
In the case of “3-[(2,4- dimethylphenyl)carbamoyl]naphthalen-2- olate; N-(2,4-dimethylphenyl)-3- hydroxynaphthalene-2-carboxamide; nickel(2+) [Compound 37]”, the “Cytotoxicity (%)” value worked out at 7.924%.

“[benzylsulfanyl(sulfoniumylidene) methyl]-(1-pyridin-2- ylethylideneamino)azanide; chlorocopper [Compound 65]”: the “Cytotoxicity (%)” value amounted to 13.75%.

For “azidobenzene; 1H-indene; prop-1-en-2- ylbenzene [Compound 49]”, the “Cytotoxicity (%)” value came to 6.968%.
